Test system: P-ERK in HCT116 cells expressing WT BRAF
Type: cell-based
Settings: HCT-116 cells; maximum P-ERK signal as percentage of highest dabrafenib signal
Description: DMEM no-phenol red medium supplemented with L-glutamine was purchased from (Thermo Fisher Scientific). Fetal bovine serum (FBS) was purchased from VWR. Advanced ERK phospho-T202/Y204 kit—10,000 tests was purchased from Cisbio cat #64AERPEH. A375 and HCT116 cells were originally obtained from ATCC and banked by the Roche repository. 384-well microplates were purchased from Greiner Bio-One, 384-well, (With Lid, HiBase, Low volume cat 784-080).
A375 is a cellular cancer model expressing V600E mutated BRAF and HCT116 a cellular cancer model expressing WT BRAF. […] ERK 1,2 phosphorylation (terminal member of the phosphorylation cascade of the MAPK pathway) is hereafter reported as main readout for the activation status of the MAPK pathway. […]
The plate is then analyzed and fluorescence emission value collected through a Pherastast FSX (BMG Labtech) apparatus at […].
The obtained fluorescence values are processed according to the formula Ratio=[…]*10000 then the average of the ratio on the blank is subtracted to all values. […]
The Percentage of Maximum paradox inducing effect from dabrafenib is determined by evaluating the percentage at which the test compound induce its maximum P-ERK signal as percentage of the highest signal produced by dabrafenib within the dose range tested.

Structure (SMILES): CCCS(=O)(=O)Nc1ccc(F)c(Oc2ccc3ncn(C)c(=O)c3c2)c1C#N [AR-25]
- Percentage of Maximum paradox inducing effect from dabrafenib: 103%
